The values that follow come from US9526740B2, “Prochelators as broad-spectrum antimicrobial agents and methods of use” (Duke University, priority 2013, dated 2016).

Structures are written as SMILES.

The subject of the data set is murine macrophage-like J774A.1 cells. Nature of the data set: Viability of macrophage-like cells (CellTiter-Glo). Particulars: 100 μM with supplemental Cu; 12 h. For orientation: In ATP-based viability assays light output follows the ATP content of the culture.

In the case of `CC1(C)C2CC3OB(c4cccc5cccnc45)O[C@]3(C)C1C2` (stereo in doubt) [QBP, quinoline boronic ester], the “Viability of J774.1 cells at highest dose with Cu” value is recorded as “loss of viability”.
